These are literature values, as cited in US20160051533A1, “DIAGNOSIS AND PHARMACOLOGICAL TREATMENT OF SEASONAL AFFECTIVE DISORDER AND SYMPTOMS OF SEASONALITY” (Ladd Research LLC, priority 2014, published 2016).

By UniProt entry, the sequences of proteins in these tests, tags left out.
UniProt O43613, whole entry: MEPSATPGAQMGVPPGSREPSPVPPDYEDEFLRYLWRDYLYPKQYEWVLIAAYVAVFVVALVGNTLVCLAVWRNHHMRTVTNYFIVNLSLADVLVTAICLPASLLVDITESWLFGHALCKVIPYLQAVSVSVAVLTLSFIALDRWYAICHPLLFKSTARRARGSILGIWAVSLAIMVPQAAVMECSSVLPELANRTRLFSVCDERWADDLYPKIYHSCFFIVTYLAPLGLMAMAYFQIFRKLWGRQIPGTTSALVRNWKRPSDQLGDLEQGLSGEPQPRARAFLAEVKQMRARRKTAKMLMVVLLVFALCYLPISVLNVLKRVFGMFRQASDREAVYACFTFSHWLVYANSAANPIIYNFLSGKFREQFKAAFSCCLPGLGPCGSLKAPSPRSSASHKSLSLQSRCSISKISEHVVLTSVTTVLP

What is called Ki is a dissociation constant, usually derived from enzyme kinetics or from competition with a known ligand. For orientation: Kd means the concentration at which binding is half-saturated.

For data set [1], the target named is T1, Human OxR1 (Homo sapiens, UniProt O43613). As to conditions: read-out: Human OxR1 Ki; cited from earlier work.
Data set [2] has as its target T1, Human OxR1. As to conditions: read-out: Human OxR1 RLIPR; cited from earlier work.
For data set [3], the target named is T1, Human OxR1. As to conditions: [3H] Almorexant, one saturable site; cited from earlier work.

On to `CNC(=O)[C@@H](c1ccccc1)N1CCc2cc(OC)c(OC)cc2[C@@H]1CCc1ccc(C(F)(F)F)cc1.Cl` [Almorexant HCl], for which the Ki on Human OxR1 [1] was 4.7 nM. The IC50 at Human OxR1 [2] is 24.1 nM. In addition, the Kd on Human OxR1 [3] is 1.3 nM.
